# Literature values in publication PMC4703549 (Cancer research, 2015).
# Tested on: TNK2
# Conditions: cited from earlier work
compound,measurement,value
"Cc1nc(Nc2ncc(C(=O)Nc3c(C)cccc3Cl)s2)cc(N2CCN(CCO)CC2)n1 [dasatinib, N-(2-chloro-6-methyl-phenyl)-2-(6-(4-(2-hydroxyethyl)-piperazin-1-yl)-2-methylpyrimidin-4-ylamino)thiazole-5-carboxamide]",binding to TNK2,low nanomolar range
